Results from ChEMBL document CHEMBL1125951, “Synthesis and dopaminergic activity of the enantiomers of 6-methyl-4,5a,6,7,8-hexahydrothiazolo[4,5-f]quinolin-2-amine (PD 128483)” (Bioorg Med Chem Lett, 1991).

Protein sequences, listed by entry. Tags and fused reporters are not part of them. Lines headed by an entry give the natural chain unless they say otherwise; changes in a name come on top.
UniProt P18901: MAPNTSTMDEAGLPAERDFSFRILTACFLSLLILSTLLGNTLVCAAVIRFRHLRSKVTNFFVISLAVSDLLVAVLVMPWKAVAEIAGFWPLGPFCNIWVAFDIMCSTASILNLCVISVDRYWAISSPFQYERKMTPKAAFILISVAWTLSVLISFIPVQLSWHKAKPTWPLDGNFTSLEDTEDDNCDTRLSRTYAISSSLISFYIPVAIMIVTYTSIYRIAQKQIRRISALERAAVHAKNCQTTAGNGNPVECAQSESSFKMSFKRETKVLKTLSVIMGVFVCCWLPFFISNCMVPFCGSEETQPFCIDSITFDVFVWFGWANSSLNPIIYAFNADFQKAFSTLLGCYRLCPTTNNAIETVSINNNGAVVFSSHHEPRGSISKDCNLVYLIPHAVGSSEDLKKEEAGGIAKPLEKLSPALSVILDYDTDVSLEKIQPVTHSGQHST
UniProt P61169, whole entry: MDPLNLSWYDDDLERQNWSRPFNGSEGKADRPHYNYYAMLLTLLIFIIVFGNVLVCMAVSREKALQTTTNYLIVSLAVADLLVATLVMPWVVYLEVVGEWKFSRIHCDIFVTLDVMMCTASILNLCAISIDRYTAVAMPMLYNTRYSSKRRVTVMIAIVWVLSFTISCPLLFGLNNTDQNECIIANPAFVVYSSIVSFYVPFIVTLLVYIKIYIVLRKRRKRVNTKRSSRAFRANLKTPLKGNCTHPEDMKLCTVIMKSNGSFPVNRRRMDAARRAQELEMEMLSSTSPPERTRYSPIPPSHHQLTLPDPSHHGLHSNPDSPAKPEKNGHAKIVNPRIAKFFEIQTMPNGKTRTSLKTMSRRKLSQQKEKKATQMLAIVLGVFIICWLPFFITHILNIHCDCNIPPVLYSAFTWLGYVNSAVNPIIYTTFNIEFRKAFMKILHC

Assays:
[1] = molecular target: Dopamine receptors; D1 & D2 (Rattus norvegicus, UniProt P18901+P61169); experiment: In vitro binding affinity to Dopamine receptor D1/Dopamine receptor D2 in rat striatal membranes using [3H]N-propylnorapomorphine; type: cell membranes, Striatum, Membrane
D(2) dopamine receptor = D(2) dopamine receptor (Rattus norvegicus, UniProt P61169); experiment: In vitro binding affinity to Dopamine receptor D2 in rat striatal membranes using D2 antagonist [3H]spiperone; type: cell membranes, Striatum, Membrane

Compound	IC50 [1] [nM]	IC50 (D(2) dopamine receptor) [nM]
CCCN1CCC=C2c3nc(N)sc3CC[C@H]21	138	860
CCCN1CCC=C2c3nc(N)sc3CC[C@@H]21	295	–
